Source: ChEMBL document CHEMBL1152790, “Synthesis and pharmacological characterization of beta2-adrenergic agonist enantiomers: zilpaterol” (J Med Chem, 2009)

By UniProt entry, the sequences of proteins in these tests, tags left out.
UniProt Q8K4Z4, whole entry: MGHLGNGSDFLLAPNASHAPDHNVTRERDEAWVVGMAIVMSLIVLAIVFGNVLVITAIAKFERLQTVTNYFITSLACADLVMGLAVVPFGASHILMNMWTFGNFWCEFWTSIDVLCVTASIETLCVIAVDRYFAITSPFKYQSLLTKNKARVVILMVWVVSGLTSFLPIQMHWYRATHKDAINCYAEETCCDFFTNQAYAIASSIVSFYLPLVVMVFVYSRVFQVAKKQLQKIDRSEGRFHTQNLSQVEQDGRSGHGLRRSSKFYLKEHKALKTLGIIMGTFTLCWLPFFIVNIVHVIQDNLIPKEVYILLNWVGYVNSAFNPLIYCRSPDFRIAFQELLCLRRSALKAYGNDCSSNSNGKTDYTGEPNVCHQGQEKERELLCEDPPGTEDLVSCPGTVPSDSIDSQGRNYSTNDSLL

Target: Beta-2 adrenergic receptor (Cavia porcellus, UniProt Q8K4Z4)

In the case of `CC(C)(C)NCC(O)c1ccc(O)c(CO)c1` (racemic) [ALBUTEROL], the EC50 is reported as 9.1 nM.
